Consider 20 compounds from US12473298B2, “Amide compounds, preparation method therefor, and use thereof in the medical field” (Shanghai Synergy Pharmaceutical Sciences Co., Ltd., priority 2019, dated 2025).

Sequences of proteins named here, by UniProt entry; tags and fusion partners are left off.
UniProt Q15910, whole entry: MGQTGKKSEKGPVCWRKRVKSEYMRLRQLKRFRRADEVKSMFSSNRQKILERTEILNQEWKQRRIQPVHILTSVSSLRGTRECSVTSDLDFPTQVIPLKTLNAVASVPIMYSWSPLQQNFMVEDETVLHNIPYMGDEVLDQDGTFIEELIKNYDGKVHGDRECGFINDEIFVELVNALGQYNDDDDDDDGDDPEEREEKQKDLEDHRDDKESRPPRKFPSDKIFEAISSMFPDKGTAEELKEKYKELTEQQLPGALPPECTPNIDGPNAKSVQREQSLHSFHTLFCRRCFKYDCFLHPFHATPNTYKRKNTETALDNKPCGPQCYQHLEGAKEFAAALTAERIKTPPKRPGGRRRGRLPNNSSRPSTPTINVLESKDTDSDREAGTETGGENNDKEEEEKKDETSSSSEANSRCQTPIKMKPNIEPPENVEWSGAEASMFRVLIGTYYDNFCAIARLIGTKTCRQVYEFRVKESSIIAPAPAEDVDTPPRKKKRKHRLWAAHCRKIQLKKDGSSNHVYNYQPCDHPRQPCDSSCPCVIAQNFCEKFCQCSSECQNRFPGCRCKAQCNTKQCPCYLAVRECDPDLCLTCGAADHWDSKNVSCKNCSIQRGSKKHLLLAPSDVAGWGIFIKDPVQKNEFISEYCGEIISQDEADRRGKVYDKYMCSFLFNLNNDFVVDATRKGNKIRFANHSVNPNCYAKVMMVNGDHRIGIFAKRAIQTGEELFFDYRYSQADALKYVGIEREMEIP

Like-named read-outs stand apart in the source and are kept apart here.

Experiment [1] has as its system human diffuse large cell lymphoma B lymphocytes (Pfeiffer cell). Description: Pfeiffer cell proliferation, Calcein AM staining. The format is cell-based.
Experiment [2] deals with human diffuse large B-cell lymphoma cells (Karpas 422 cell). Description: Karpas 422 cell proliferation, Calcein AM staining. Type of experiment: cell-based.
Experiment [3] has as its target wild-type EZH2 (Homo sapiens (Human), UniProt Q15910). Description: radiometric assay, activity to wild-type EZH2 of PRC2. The following applies: read-out: Wild-type EZH2 IC50 Nanomoles per Liter.
The mark [4] stands for this setting: Homo sapiens, Pfeiffer, read-out: Pfeiffer Proliferation IC50 Nanomoles per Liter (nM), data of 14th day.
Where [5] appears, read: Homo sapiens, KARPAS-422, read-out: Karpas422 Proliferation IC50 Nanomoles per Liter (nM), data of 14th day.
Where [6] appears, read: Homo sapiens, Pfeiffer, read-out: Pfeiffer Proliferation IC50 Nanomoles per Liter (nM).

Turning to `CCN(c1cc(-c2ccc3c(c2)N(C(C)=O)CC32CCOCC2)cc(C(=O)NCc2c(OC)cc(C)[nH]c2=O)c1C)C1CCOCC1` [Example 2, 5-(1-acetyl-2′,3′,5′,6′-tetrahydrospiro[dihydroindole-3,4′-pyran]-6-yl)-3-(ethyl(tetrahydro-2H-pyran-4-yl)amino)-N-((4-methoxy-6-methyl-2-carbonyl-1,2-dihydropyridin-3-yl)methyl)-2-methylbenzamide], the results for the IC50 in experiment [1] (setting [4]) and in experiment [2] (setting [5]) were 3.6 nM and 2.78 nM, respectively.
On to `CCN(c1cc(-c2ccc3c(c2)NC(=O)C32CCN(C)CC2)cc(C(=O)NCc2c(OC)cc(C)[nH]c2=O)c1C)C1CCOCC1` [Example 4, 3-(ethyl(tetrahydro-2H-pyran-4-yl)amino)-N-((4-methoxy-6-methyl-2-oxo-1,2-dihydropyridin-3-yl)methyl)-2-methyl-5-(1′-methyl-2-oxospiro[dihydroindole-3,4′-piperidine]-6-yl)benzamide], for which the IC50 in experiment [1] (read-out: Pfeiffer Proliferation IC50 Nanomoles per Liter, data of 14th day) is 3.12 nM; in experiment [2] (read-out: Karpas422 Proliferation IC50 Nanomoles per Liter, data of 14th day), 2.87 nM.
Take `CCN(c1cc(-c2ccc3c(c2)NCC32CCOCC2)cc(C(=O)NCc2c(OC)cc(C)[nH]c2=O)c1C)C1CCNCC1` [Example 5, 3-(ethyl(piperidin-4-yl)amino)-N-((4-methoxy-6-methyl-2-oxo-1,2-dihydropyridin-3-yl)methyl)-2-methyl-5-(2′,3′,5′,6′-tetrahydrospiro[indoline-3,4′-pyran]-6-yl)benzamide]: the IC50 was 0.63 nM in experiment [1] (setting [4]) and 0.91 nM in experiment [2] (setting [5]).
For `CCN(c1cc(-c2ccc3c(c2)NCC32CCOCC2)cc(C(=O)NCc2c(C)cc(C)[nH]c2=O)c1C)C1CCNCC1` [Example 6, N-((4,6-dimethyl-2-oxo-1,2-dihydropyridin-3-yl)methyl)-3-(ethyl(piperidin-4-yl)amino)-2-methyl-5-(2′,3′,5′,6′-tetrahydrospiro[dihydroindole-3,4′-pyran]-6-yl)benzamide], in experiment [3], the IC50 turned out to be 0.75 nM.
In the case of `CCN(c1cc(-c2ccc3c(c2)N(C)C(=O)C32CCOCC2)c(Cl)c(C(=O)NCc2c(C)cc(C)[nH]c2=O)c1C)C1CCOCC1` [Example 10, 2-chloro-N-((4,6-dimethyl-2-oxo-1,2-dihydropyridin-3-yl)methyl)-5-(ethyl(tetrahydro-2H-pyran-4-yl)amino)-6-methyl-3-(1-methyl-2-oxo-2′,3′,5′,6′-tetrahydrospiro[dihydroindole-3,4′-pyran]-6-yl)benzamide], the IC50 in experiment [2] (setting [5]) is 1.28 nM.
Regarding `CCN(c1cc(-c2ccc3c(c2)N(C(C)C)CC32CCOCC2)c(Cl)c(C(=O)NCc2c(C)cc(C)[nH]c2=O)c1C)C1CCOCC1` [Example 11, 2-chloro-N-((4,6-dimethyl-2-carbonyl-1,2-dihydropyridin-3-yl)methyl)-5-(ethyl(tetrahydro-2H-pyran-4-yl)amino)-3-(1-isopropyl-2′,3′,5′,6′-tetrahydrospiro[dihydroindole-3,4′-pyran]-6-yl)-6-methylbenzamide], the IC50 in experiment [1] (setting [4]) was 1.26 nM; in experiment [2] (setting [5]), 1.67 nM.
Turning to `CCN(c1cc(-c2cc3c(cc2F)CCC32CCOCC2)cc(C(=O)NCc2c(OC)cc(C)[nH]c2=O)c1C)C1CCOCC1` [Example 16, 3-(ethyl(tetrahydro-2H-pyran-4-yl)amino)-5-(5-fluoro-2,2′,3,3′,5′,6′-hexahydrospiro[indene-1,4′-pyran]-6-yl)-N-((4-methoxy-6-methyl-2-carbonyl-1,2-dihydropyridin-3-yl)methyl)-2-methylbenzamide], the IC50 in experiment [2] (setting [5]) is 0.98 nM.
Consider `CCN(c1cc(-c2ccc3c(c2)N(C)CC32CCN(CC(F)(F)F)CC2)cc(C(=O)NCc2c(C)cc(C)[nH]c2=O)c1C)C1CCOCC1` [Example 22, N-((4,6-dimethyl-2-carbonyl-1,2-dihydropyridin-3-yl)methyl)-3-(ethyl(tetrahydro-2H-pyran-4-yl)amino)-2-methyl-5-(1-methyl-1′-(2,2,2-trifluoroethyl)spiro[dihydroindole-3,4′-piperidine]-6-yl)benzamide], for which the IC50 in experiment [1] (setting [4]) is 1.64 nM; in experiment [2] (setting [5]), 2.54 nM.
Turning to `CCN(c1cc(-c2ccc3c(c2)N(C(C)C)CC32CCOCC2)cc(C(=O)NCc2c(C)cc(C)[nH]c2=O)c1C)C1CCOCC1` [Example 25], the IC50 in experiment [1] (setting [6]) was 0.81 nM.
Turning to `CCN(c1cc(-c2ccc3c(c2)N(C)C(=O)C32CCN(CC(F)(F)F)CC2)cc(C(=O)NCc2c(C)cc(C)[nH]c2=O)c1C)C1CCOCC1` [Example 27, N-((4,6-dimethyl-2-carbonyl-1,2-dihydropyridin-3-yl)methyl)-3-(ethyl(tetrahydro-2H-pyran-4-yl)amino)-2-methyl-5-(1-methyl-2-carbonyl-1′-(2,2,2-trifluoroethyl)spiro[dihydroindole-3,4′-piperidine]-6-yl)benzamide], the IC50 was 2.26 nM in experiment [1] (setting [4]) and 2.74 nM in experiment [2] (setting [5]).
For the compound `CCN(c1cc(-c2ccc3c(c2)N(C)C(=O)C32CCNCC2)cc(C(=O)NCc2c(OC)cc(C)[nH]c2=O)c1C)C1CCOCC1` [Example 34, 3-(ethyl(tetrahydro-2H-pyran-4-yl)amino)-N-((4-methoxy-6-methyl-2-carbonyl-1,2-dihydropyridin-3-yl)methyl)-2-methyl-5-(1-methyl-2-carbonylspiro[dihydroindole-3,4′-piperidine]-6-yl)benzamide], the IC50 is 0.59 nM in experiment [1] (setting [4]) and 1.65 nM in experiment [2] (setting [5]).
For the compound `CCN1CC2(CCOCC2)c2ccc(-c3cc(C(=O)NCc4c(C)cc(C)[nH]c4=O)c(C)c(N(CC)C4CCOCC4)c3)cc21` [Example 38, N-((4,6-dimethyl-2-oxo-1,2-dihydropyridin-3-yl)methyl)-3-(ethyl(tetrahydro-2H-pyran-4-yl)amino)-5-(1-ethyl-2′,3′,5′,6′-tetrahydrospiro[dihydroindole-3,4′-pyran]-6-yl)-2-methylbenzamide], the values for the IC50 in experiment [1] (setting [4]) and in experiment [2] (setting [5]) were 1.15 nM and 2.42 nM, respectively.
In the same order, the values of `CCN(c1cc(-c2ccc3c(c2)N(CC(F)(F)F)C(=O)C32CCNCC2)cc(C(=O)NCc2c(OC)cc(C)[nH]c2=O)c1C)C1CCOCC1` [Example 41, 3-(ethyl(tetrahydro-2H-pyran-4-yl)amino)-N-((4-methoxy-6-methyl-2-oxo-1,2-dihydropyridin-3-yl)methyl)-2-methyl-5-(2-oxo-1-(2,2,2-trifluoroethyl)spiro[dihydroindole-3,4′-piperidine]-6-yl)benzamide] are 1.87 nM and 3.5 nM.
With `CCN(c1cc(-c2ccc3c(c2)N(C(C)C)C(=O)C32CCOCC2)c(Cl)c(C(=O)NCc2c(C)cc(C)[nH]c2=O)c1C)C1CCOCC1` [Example 46, 2-chloro-N-((4,6-dimethyl-2-oxo-1,2-dihydropyridin-3-yl)methyl)-5-(ethyl(tetrahydro-2H-pyran-4-yl)amino)-3-(1-isopropyl-2-oxo-2′,3′,5′,6′-tetrahydrospiro[dihydroindole-3,4′-pyran]-6-yl)-6-methylbenzamide], the IC50 was 4.79 nM in experiment [1] (setting [4]) and 5.32 nM in experiment [2] (setting [5]).
As to `CCN(c1cc(-c2ccc3c(c2)N(C(C)C)C(=O)C32CCOCC2)cc(C(=O)NCc2c(OC)cc(C)[nH]c2=O)c1C)C1CCOC(C)(C)C1` (centres unmarked) [Example 64, 3-((2,2-dimethyltetrahydro-2H-pyran-4-yl)(ethyl)amino)-5-(1-isopropyl-2-carbonyl-2′,3′,5′,6′-tetrahydrospiro[dihydroindole-3,4′-pyran]-6-yl)-N-((4-methoxy-6-methyl-2-carbonyl-1,2-dihydropyridin-3-yl)methyl)-2-methylbenzamide], the IC50 in experiment [1] (setting [6]) is 0.75 nM.
As to `CCN(c1cc(-c2ccc3c(c2)NC(=O)C32CCOCC2)cc(C(=O)NCc2c(C)cc(C)[nH]c2=O)c1C)C1CCNCC1` [Example 76, N-((4,6-dimethyl-2-oxo-1,2-dihydropyridin-3-yl)methyl)-3-(ethyl(piperidin-4-yl)amino)-2-methyl-5-(2-oxo-2′,3′,5′,6′-tetrahydrospiro[dihydroindole-3,4′-pyran]-6-yl)benzamide], the results for the IC50 in experiment [1] (setting [4]) and in experiment [2] (setting [5]) were 0.1 nM and 0.15 nM, respectively.
With `CCN(c1cc(-c2ccc3c(c2)NC(=O)C32CCN(C)CC2)cc(C(=O)NCc2c(OC)cc(C)[nH]c2=O)c1C)C1CCOCC1` [Example 114, 3-(Ethyl(tetrahydro-2H-pyran-4-yl)amino)-N-((4-methoxy-6-methyl-2-oxo-1,2-dihydropyridin-3-yl)methyl)-2-methyl-5-(1′-methyl-2-oxospiro[dihydroindole-3,4′-piperidine]-6-yl)benzamide], the IC50 in experiment [1] (setting [4]) was 3.34 nM; in experiment [2] (setting [5]) it was 4.61 nM.
In the same order, the values of `CCN(c1cc(-c2ccc3c(c2)NC(=O)C32CCOCC2)cc(C(=O)NCc2c(OC)cc(C)[nH]c2=O)c1C)C1CCOCC1` [Example 115, 3-(Ethyl(tetrahydro-2H-pyran-4-yl)amino)-N-((4-methoxy-6-methyl-2-oxo-1,2-dihydropyridin-3-yl)methyl)-2-methyl-5-(2-oxo-2′,3′,5′,6′-tetrahydrospiro[dihydroindole-3,4′-pyran]-6-yl)benzamide] are 2.45 nM and 5.77 nM.
Regarding `CCN(c1cc(-c2ccc3c(c2)NC(=O)C32CCNCC2)cc(C(=O)NCc2c(OC)cc(C)[nH]c2=O)c1C)C1CCNCC1` [Example 116, 3-(Ethyl(piperidin-4-yl)amino)-N-((4-methoxy-6-methyl-2-oxo-1,2-dihydropyridin-3-yl)methyl)-2-methyl-5-(2-oxospiro[indole-3,4′-piperidine]-6-yl)benzamide], the IC50 in experiment [1] (setting [4]) was 1.69 nM; in experiment [2] (setting [5]), 1.84 nM.
Take “N-((4,6-dimethyl-2-oxo-1,2-dihydropyridin-3-yl)methyl)-3-(ethyl(tetrahydro-2H-pyran-4-yl)amino)-5-(1-isopropyl-2′,3′,5′,6′-tetrahydrospiro[dihydroindole-3,4′-pyran]-6-yl)-2-methylbenzamide [Example 65]”: the IC50 is 1.87 nM in experiment [1] (data of 14th day, read-out: Pfeiffer Proliferation IC50 Nanomoles per Liter) and 3.34 nM in experiment [2] (data of 14th day, read-out: Karpas422 Proliferation IC50 Nanomoles per Liter).
